Measured affinities in a library of Ab-14 heavy chain variants

From the AlphaSeq antibody data of Li et al. 2023 (doi:10.1038/s41467-023-39022-2), copy in the FLAb collection.

All variants were tested on one target, the spike HR2 peptide PDVDLGDISGINAS (SARS-CoV-2).

Ab-14 is the parent antibody, in scFv form: VH, then a (GGGGS)3 linker, then VL. The light chain is unchanged in all variants.
VH: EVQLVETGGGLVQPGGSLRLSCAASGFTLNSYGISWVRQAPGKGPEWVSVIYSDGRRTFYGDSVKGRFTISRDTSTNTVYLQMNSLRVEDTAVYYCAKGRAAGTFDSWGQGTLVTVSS
VL: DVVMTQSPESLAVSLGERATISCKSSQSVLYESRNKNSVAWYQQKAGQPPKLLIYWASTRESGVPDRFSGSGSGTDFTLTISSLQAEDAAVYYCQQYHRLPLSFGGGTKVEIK

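Phage display of a naive human antibody library on the peptide gave the parent. This is the validation round: designs drawn from the data on random variants, tested in the same kind of assay. Several design methods are mixed in this list. Affinity was read by AlphaSeq, a pooled yeast mating assay with surface-displayed partners. Mating (16 h, 30 °C) was followed by selection of diploids and sequencing of their barcodes. A regression on co-assayed BCL2-family reference pairs converts the normalised counts of each replicate to an apparent Kd. Mating was done six times.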

Positions count from residue 1 of the parent VH; S31D puts D in place of S.
Variants here have at most six changes.
Each Kd is an estimate from the mating assay, the geometric mean of the replicates in which the pair was seen; lower is stronger.
"nd" marks a missing value. The strain was present, yet no cells mated with the target were sequenced in any replicate, which points to weak or no binding.
The parent sequence was in this pool as ten entries: three were never detected, three once, and four in most replicates, with averages from 2.2 nM to 240 nM.
Values of this round are not directly comparable with the first-round values of the same sequences.
Nonspecific signal, from three strains lacking the peptide, appeared in 1% of pairings of all heavy chain designs, centred on 120 nM (5% of these signals below 7.0 nM); values are not corrected for it. Also given: how often the same scFv was detected with the empty control strains.
The authors averaged sequences with at least three values out of six and counted those with two or fewer as poor binders.

* S31D F59Q G61I R100H = 3.0 nM (6 of 6 replicates; controls 0 of 18)
* T28S G61H A101N = 3.6 nM (6 of 6 replicates; controls 0 of 18)
* L29I S35H S63D A101N F105K = nd (0 of 6 replicates; controls 0 of 18)
* S31E A101T D106M S107T = 220 nM (1 of 6 replicates; controls 0 of 18)
* S31E D106K S107F = nd (0 of 6 replicates; controls 0 of 18)
* Y32Q R56M F59S = 280 nM (1 of 6 replicates; controls 0 of 18)
* F27C G61D R100Q A101L S107N = nd (0 of 6 replicates; controls 0 of 18)
* S31D G61A A101T D106M = 96 nM (5 of 6 replicates; controls 0 of 18)
* T28S S31D G61D A101T = 360 pM (6 of 6 replicates; controls 1 of 18)
* T28S S31E R100S S107R = 4.2 nM (6 of 6 replicates; controls 0 of 18)
* S31D G61I R100Q = 3.2 nM (6 of 6 replicates; controls 0 of 18)
* T28W S53A R100D = 2.7 nM (1 of 6 replicates; controls 1 of 18)
* F27E N30R G61D A101S = 230 nM (6 of 6 replicates; controls 2 of 18)
* G61T R100S A101E = 1.8 nM (6 of 6 replicates; controls 1 of 18)
* S31Q = 8.6 nM (6 of 6 replicates; controls 0 of 18)
* D106E = nd (0 of 6 replicates; controls 0 of 18)
* G26S T28D G61Q A101T = 3.9 nM (6 of 6 replicates; controls 1 of 18)
* S31D I34H F59Q G61I = nd (0 of 6 replicates; controls 0 of 18)
* T28H A101R = nd (0 of 6 replicates; controls 0 of 18)
* N30T R100S F105N = nd (0 of 6 replicates; controls 0 of 18)
* S31E Y32F G61T A101L = 5.1 nM (6 of 6 replicates; controls 0 of 18)
* G61A R100S S107K = 4.8 nM (6 of 6 replicates; controls 2 of 18)
* T28D S31E S53A R56V G61A R100N = 720 pM (6 of 6 replicates; controls 0 of 18)
* S31E R56S G61T A101F = 24 nM (6 of 6 replicates; controls 1 of 18)
* T28S S31D G61V A101T = 540 pM (6 of 6 replicates; controls 0 of 18)
* N30D G61Q S107R = 8.7 nM (2 of 6 replicates; controls 0 of 18)
* S31E G61S T104H = 630 pM (6 of 6 replicates; controls 0 of 18)
* T28D A101Q S107N = 5.3 nM (5 of 6 replicates; controls 2 of 18)
* I51H S53A V64W F105N D106K = nd (0 of 6 replicates; controls 0 of 18)
* T28S S31D F59W D106I = nd (0 of 6 replicates; controls 1 of 18)
* S31E G61T A101F F105M = 6.9 nM (6 of 6 replicates; controls 0 of 18)
* T28D G61C A101E = 2.5 nM (6 of 6 replicates; controls 0 of 18)
* R56F = 2.4 nM (1 of 6 replicates; controls 0 of 18)
* T28E N30E S53A = 770 pM (6 of 6 replicates; controls 0 of 18)
* S31E T58S R100H S107N = 22 nM (6 of 6 replicates; controls 0 of 18)
* T28D R100N A101K = 12 nM (6 of 6 replicates; controls 1 of 18)
* T28G S53A R100Q = 1.9 nM (6 of 6 replicates; controls 0 of 18)
* G26R T28N S31D = 1.1 µM (1 of 6 replicates; controls 0 of 18)
* S31E G61D A101N = nd (0 of 6 replicates; controls 0 of 18)

5 of these entries, quoted again:

changes,Kd (apparent),detected,empty controls
G26S T28D G61Q A101T,3.9 nM,6/6,1/18
T28W S53A R100D,2.7 nM,1/6,1/18
Y32Q R56M F59S,280 nM,1/6,0/18
S31E T58S R100H S107N,22 nM,6/6,0/18
G26R T28N S31D,1.1 µM,1/6,0/18